{
  "sequences": {"note": "Amino acid sequences for entries named in this document (tags omitted). Residues count along the entry.", "UniProt P03951, 19-387 partner limits assumed": "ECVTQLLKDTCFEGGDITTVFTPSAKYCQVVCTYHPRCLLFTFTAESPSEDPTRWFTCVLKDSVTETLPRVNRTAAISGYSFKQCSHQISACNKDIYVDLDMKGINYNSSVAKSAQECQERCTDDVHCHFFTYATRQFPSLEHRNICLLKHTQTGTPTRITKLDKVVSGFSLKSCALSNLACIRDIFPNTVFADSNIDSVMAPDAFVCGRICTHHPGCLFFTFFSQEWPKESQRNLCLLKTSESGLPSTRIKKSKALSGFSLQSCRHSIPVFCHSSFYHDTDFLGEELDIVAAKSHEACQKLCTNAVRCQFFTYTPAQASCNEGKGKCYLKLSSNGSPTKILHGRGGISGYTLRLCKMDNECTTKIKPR", "UniProt P03951, 388-625 limits assumed": "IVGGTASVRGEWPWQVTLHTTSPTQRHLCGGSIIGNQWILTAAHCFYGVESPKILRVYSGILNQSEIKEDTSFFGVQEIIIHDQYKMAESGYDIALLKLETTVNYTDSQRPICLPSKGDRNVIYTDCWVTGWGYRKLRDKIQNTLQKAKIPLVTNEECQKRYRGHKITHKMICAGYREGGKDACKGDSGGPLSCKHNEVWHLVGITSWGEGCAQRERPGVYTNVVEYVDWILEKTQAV"},
  "source": "patent US20230286958A1",
  "about": "“PLASMA KALLIKREIN INHIBITORS” (Merck Sharp & Dohme LLC, priority 2020, published 2023)",
  "molecular_target": "human Factor XIa (Homo sapiens (Human), UniProt P03951)",
  "experiment": "Factor XIa Assay (fluorogenic substrate GPR-AFC)",
  "assay_type": "biochemical",
  "conditions": "read-out: FXIa IC50",
  "procedure": "The effectiveness of a compound of the present invention as an inhibitor of Coagulation Factor XIa can be determined using a relevant purified serine protease, and an appropriate synthetic substrate. The rate of hydrolysis of the chromogenic or fluorogenic substrate by the relevant serine protease was measured both in the absence and presence of compounds of the present invention. Assays were conducted at room temperature or at 37° C. […] A decrease in the rate of fluorescence change in the presence of inhibitor is indicative of enzyme inhibition. Such methods are known to one skilled in the art. The results of this assay are expressed as the half-maximal inhibitory concentrations (IC50), or the inhibitory constant, Ki.\nCompounds were pre-incubated for 30 minutes at 25° C. with human (0.04 nM) Factor XIa in 50 mM HEPES buffer with 150 mM sodium chloride, 5 mM calcium chloride, 0.1% PEG 8000, pH 7.4. […] The % inhibition for each data point was calculated from the data and analyzed using the log (inhibitor) vs. response four parameters equation to determine the half-maximal inhibitory concentrations (IC50). The IC50 were converted to equilibrium inhibitory constants (Ki) using the Cheng-Prusoff equation.",
  "data": [
    {"substance": "6-(3-Chloro-6-(difluoromethyl)-2-fluorophenyl)-N (1-(1-(5-fluoro-4-methyl-6-((1R,5S)-2-oxo-3-azabicyclo[3.1.0]hexan-3-yl)pyridin-3-yl)ethyl)-1H-pyrazol-4-yl)pyrazine-2-carboxamide [Example 44]", "values": [
      {"measurement": "IC50", "value": 1120, "unit": "nM"}
    ]}
  ]
}
